{"sequences": {"note": "Sequences of proteins named here, by UniProt entry; tags and fusion partners are left off. Residues count along the entry.", "UniProt C7C422, 29-270, looked up, species assumed": "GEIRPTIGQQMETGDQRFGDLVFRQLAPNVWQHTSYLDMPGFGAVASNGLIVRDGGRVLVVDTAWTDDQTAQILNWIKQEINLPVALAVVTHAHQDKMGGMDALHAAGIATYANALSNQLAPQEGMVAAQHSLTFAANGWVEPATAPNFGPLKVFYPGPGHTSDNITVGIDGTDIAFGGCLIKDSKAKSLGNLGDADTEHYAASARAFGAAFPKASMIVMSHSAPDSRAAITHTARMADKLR"}, "source": "patent US9132140B2", "about": "“Boronic acid derivatives and therapeutic uses thereof” (Rempex Pharmaceuticals, Inc., priority 2013, dated 2015)", "key": {"VIM-1": {"molecular_target": "T1, VIM-1 (Pseudomonas aeruginosa, UniProt A0A0F7KYQ8)", "T1 construct": "made in house; host or cells: strain ECM6711 carrying plasmid pUCP24-VIM-1 (probably E. coli, inferred); unpurified culture supernatant", "type": "biochemical"}, "NDM-1": {"molecular_target": "NDM-1 (Klebsiella pneumoniae, UniProt C7C422)", "type": "biochemical"}}, "note": "Like-named read-outs stand apart in the source and are kept apart here.", "data": [{"substance": "EDTA", "values": [{"measurement": "IC50", "setting": "VIM-1", "value": "< 1000", "unit": "nM"}, {"measurement": "Ki", "setting": "NDM-1; substrate biapenem 100 uM, read-out: Ki, μM Biapenem", "value": "0.01 to 0.1", "unit": "µM"}, {"measurement": "Ki", "setting": "NDM-1; substrate imipenem 100 uM, read-out: Ki, μM Imipenem", "value": "0.01 to 0.1", "unit": "µM"}, {"measurement": "Ki", "setting": "NDM-1; substrate meropenem, read-out: Ki, μM Meropenem", "value": "0.01 to 0.1", "unit": "µM"}, {"measurement": "Ki", "setting": "NDM-1; substrate tebipenem 100 uM, read-out: Ki, μM Tebipenem", "value": "0.01 to 0.1", "unit": "µM"}]}]}
